Target: KOR (Homo sapiens, UniProt P41145)
Experiment: DISCOVERX β-arrestin […] assay, agonist mode (KOR DRx)
Type: cell-based

Amino acid sequences for entries named in this document (tags omitted).
UniProt P41145, whole entry: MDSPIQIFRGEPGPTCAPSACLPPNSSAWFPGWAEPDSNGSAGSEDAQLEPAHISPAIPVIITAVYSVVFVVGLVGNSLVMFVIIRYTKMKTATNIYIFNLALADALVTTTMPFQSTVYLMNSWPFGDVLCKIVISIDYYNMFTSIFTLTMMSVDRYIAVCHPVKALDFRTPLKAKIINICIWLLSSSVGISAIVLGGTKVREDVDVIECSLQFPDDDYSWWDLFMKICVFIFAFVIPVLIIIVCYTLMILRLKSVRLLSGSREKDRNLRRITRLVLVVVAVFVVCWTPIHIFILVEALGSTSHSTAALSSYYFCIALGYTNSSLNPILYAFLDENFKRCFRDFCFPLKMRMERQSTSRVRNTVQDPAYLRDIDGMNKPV

| SMILES | EC50 (read-out: Potency, EC50 (DRx), agonist, n = 4, Table 11) [nM] | Emax (%) (at highest concentration tested, compared to dynorphin A (Emax=100%)) |
| --- | --- | --- |
| FC(F)(F)c1cc(CSc2nnc(-c3ccccn3)n2Cc2cccnc2)ccc1Cl | 500 |  |
| C(=Cc1ccccc1)CSc1nnc(-c2ccccn2)n1Cc1ccco1 |  | ~100 |

Reference: US9345703B2, “Kappa opioid receptor effectors and uses thereof” (University of Kansas, priority 2011, dated 2016)
